# Laboratory results taken from ChEMBL document CHEMBL2216750, “Irreversible protein kinase inhibitors: balancing the benefits and risks” (J Med Chem, 2012).
# Protein sequences, listed by entry. Tags and fused reporters are not part of them. Lines headed by an entry give the natural chain unless they say otherwise; changes in a name come on top.
# UniProt Q06187: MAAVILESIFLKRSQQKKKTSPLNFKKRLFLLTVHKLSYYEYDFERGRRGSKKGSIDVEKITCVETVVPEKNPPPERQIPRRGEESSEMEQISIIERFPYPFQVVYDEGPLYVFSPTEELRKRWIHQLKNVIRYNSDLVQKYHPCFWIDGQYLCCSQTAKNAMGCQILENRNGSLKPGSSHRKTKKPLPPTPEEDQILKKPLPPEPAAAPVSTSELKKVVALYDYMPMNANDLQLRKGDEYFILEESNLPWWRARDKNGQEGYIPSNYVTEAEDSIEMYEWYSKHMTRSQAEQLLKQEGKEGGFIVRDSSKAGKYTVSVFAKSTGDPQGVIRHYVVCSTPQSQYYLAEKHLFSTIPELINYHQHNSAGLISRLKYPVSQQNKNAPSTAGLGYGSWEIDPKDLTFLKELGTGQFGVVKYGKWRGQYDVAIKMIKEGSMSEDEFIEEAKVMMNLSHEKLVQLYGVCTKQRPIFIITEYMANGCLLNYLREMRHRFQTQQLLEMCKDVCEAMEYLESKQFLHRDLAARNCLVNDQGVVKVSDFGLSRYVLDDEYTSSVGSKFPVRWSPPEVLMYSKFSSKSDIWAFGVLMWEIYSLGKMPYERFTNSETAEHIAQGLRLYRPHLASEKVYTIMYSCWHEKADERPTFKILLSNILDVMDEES
# Experiments:
# [1] = biological target: T1, Tyrosine-protein kinase BTK (Homo sapiens, UniProt Q06187); test: Inhibition of Btk in human Ramos cells; format: cell-based
# [2] = biological target: T1, Tyrosine-protein kinase BTK; test: Inhibition of Btk
compound,measurement,setting,value
C=CC(=O)Nc1cccc(Nc2nc(Nc3ccc(Oc4ccnc(C(=O)NC)c4)cc3)ncc2F)c1,IC50,[1],1 nM
same,IC50,[2],< 1 nM
